Antibody variant affinities, Ab-14 heavy chain, assay B

Values reported by Li et al. 2023, doi:10.1038/s41467-023-39022-2 (FLAb copy).

Binding partner: SARS-CoV-2 spike HR2 peptide, sequence PDVDLGDISGINAS.

The variants keep the light chain, the linker and the frameworks of Ab-14 (scFv order VH, a (GGGGS)3 linker, VL).
VH: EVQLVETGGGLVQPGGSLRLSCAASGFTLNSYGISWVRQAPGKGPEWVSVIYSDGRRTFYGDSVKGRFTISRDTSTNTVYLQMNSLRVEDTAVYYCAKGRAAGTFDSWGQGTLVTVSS
VL: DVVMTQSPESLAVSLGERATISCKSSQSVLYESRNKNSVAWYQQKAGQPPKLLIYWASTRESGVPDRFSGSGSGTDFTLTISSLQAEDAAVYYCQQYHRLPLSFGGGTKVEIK

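Phage display of a naive human antibody library on the peptide gave the parent. These sequences belong to a second round, designed from the earlier measurements on random variants of the parent. Their group label is 14H_Ctrl (Ctrl: baseline library sampled from a position-specific scoring matrix, with some repeated check sequences). AlphaSeq pools MATa yeast showing the antibodies with MATalpha yeast showing the peptide. After mating in shaken culture at 30 °C for 16 h, diploids were selected and their barcode pairs sequenced. A regression on co-assayed BCL2-family reference pairs converts the normalised counts of each replicate to an apparent Kd. The assay was run in six technical replicates.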

Sequences are complete VH domains.
Values are log10 of the apparent Kd in nM; lower means stronger binding.
"n.d." marks a missing value. The strain was present, yet no cells mated with the target were sequenced in that replicate, which points to weak or no binding.

{"VH": "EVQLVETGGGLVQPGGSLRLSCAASGFTLNSYGIQWVRQAPGKGPEWVSVIYSDGRRTFYGDSVKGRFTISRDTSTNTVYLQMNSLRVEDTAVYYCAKGIAAGFIDSWGQGTLVTVSS", "log10 Kd (nM) by replicate": "n.d. n.d. n.d. n.d. n.d. n.d.", "empty controls": "0 of 18"}
{"VH": "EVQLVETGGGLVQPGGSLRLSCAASGETLNSYGISWVRQAPGKGPEWVSVIYSDGRRTFYGDSVKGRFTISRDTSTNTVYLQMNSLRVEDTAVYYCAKGQAAGTFDSWGQGTLVTVSS", "log10 Kd (nM) by replicate": "n.d. n.d. 2.23 n.d. n.d. n.d.", "empty controls": "0 of 18"}
{"VH": "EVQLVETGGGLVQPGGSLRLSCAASGFTLNSYGISWVRQAPGKGPEWVSVIYSDGRRTAAGDSVKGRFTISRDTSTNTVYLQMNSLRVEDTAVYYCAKGRAAGLFDSWGQGTLVTVSS", "log10 Kd (nM) by replicate": "n.d. n.d. n.d. n.d. n.d. n.d.", "empty controls": "0 of 18"}
{"VH": "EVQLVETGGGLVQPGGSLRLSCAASGFTLNSYGIQWVRQAPGKGPEWVSVIYSDGRRVFYKDSVKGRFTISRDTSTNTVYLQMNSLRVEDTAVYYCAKGRASGTFDDWGQGTLVTVSS", "log10 Kd (nM) by replicate": "n.d. n.d. n.d. n.d. n.d. n.d.", "empty controls": "0 of 18"}
{"VH": "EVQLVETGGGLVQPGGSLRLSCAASGFTLNSYGISWVRQAPGKGPEWVSVIYSDGRRTSYGDSVKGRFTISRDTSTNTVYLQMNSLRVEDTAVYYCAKGRAAGTFDLWGQGTLVTVSS", "log10 Kd (nM) by replicate": "1.27 1.53 0.47 n.d. n.d. 0.33", "empty controls": "0 of 18"}
{"VH": "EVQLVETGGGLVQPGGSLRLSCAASGFTLNSYGISWVRQAPGKGPEWVSVIYSDGGRTFYGDSVKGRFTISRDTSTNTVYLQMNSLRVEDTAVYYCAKGEAAGTKDSWGQGTLVTVSS", "log10 Kd (nM) by replicate": "n.d. n.d. n.d. 2.44 2.93 n.d.", "empty controls": "1 of 18 (2.25)"}
{"VH": "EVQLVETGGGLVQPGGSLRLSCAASGFTLNDYGISWVRQAPGKGPEWVSVIYSDGRRTFYGDSVKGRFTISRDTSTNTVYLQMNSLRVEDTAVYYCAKGRAAGTDDSWGQGTLVTVSS", "log10 Kd (nM) by replicate": "n.d. n.d. n.d. n.d. n.d. n.d.", "empty controls": "0 of 18"}
{"VH": "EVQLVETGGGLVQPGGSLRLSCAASGFTLNDYGISWVRQAPGKGPEWVSVIYSDGRRTFYQDSVKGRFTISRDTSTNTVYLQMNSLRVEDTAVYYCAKCRAKGTFDSWGQGTLVTVSS", "log10 Kd (nM) by replicate": "n.d. n.d. n.d. n.d. n.d. n.d.", "empty controls": "0 of 18"}
{"VH": "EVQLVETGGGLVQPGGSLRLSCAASGTALNSYGISWVRQAPGKGPEWVSVIYSDGRRTFYGDAVKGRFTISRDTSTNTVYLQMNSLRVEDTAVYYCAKGRWAGTFDSWGQGTLVTVSS", "log10 Kd (nM) by replicate": "n.d. n.d. n.d. n.d. n.d. n.d.", "empty controls": "1 of 18 (1.49)"}
{"VH": "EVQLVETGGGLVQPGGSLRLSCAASGFTLNSYGISWVRQAPGKGPEWVSVIYSDGRRTFYGQSVKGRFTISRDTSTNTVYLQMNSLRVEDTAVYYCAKGQAAGTFDQWGQGTLVTVSS", "log10 Kd (nM) by replicate": "n.d. n.d. n.d. n.d. n.d. n.d.", "empty controls": "0 of 18"}
{"VH": "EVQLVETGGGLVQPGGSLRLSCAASGFTLNSYGIQWVRQAPGKGPEWVSVIYSDGRRTAYGDSVKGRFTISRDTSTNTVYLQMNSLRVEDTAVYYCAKGRAAGTFMSWGQGTLVTVSS", "log10 Kd (nM) by replicate": "n.d. n.d. n.d. n.d. n.d. n.d.", "empty controls": "0 of 18"}
{"VH": "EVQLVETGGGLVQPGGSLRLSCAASGFSLNSYGISWVRQAPGKGPEWVSVIYSDGRRTMYGDSVKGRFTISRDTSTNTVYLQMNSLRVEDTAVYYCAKGRGAGTFDSWGQGTLVTVSS", "log10 Kd (nM) by replicate": "n.d. n.d. n.d. n.d. n.d. n.d.", "empty controls": "0 of 18"}
{"VH": "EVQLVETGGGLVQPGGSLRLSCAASGFTLNDYGISWVRQAPGKGPEWVSVIYSDGRRTFYGDSVKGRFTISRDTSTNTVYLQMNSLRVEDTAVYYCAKGRNAGQFSSWGQGTLVTVSS", "log10 Kd (nM) by replicate": "n.d. n.d. n.d. n.d. n.d. n.d.", "empty controls": "1 of 18 (0.41)"}
{"VH": "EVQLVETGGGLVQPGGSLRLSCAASGFTLNSYGISWVRQAPGKGPEWVSVIYSDGRRTFYIFSVRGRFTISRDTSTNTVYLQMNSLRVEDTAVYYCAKGRKAGTFPSWGQGTLVTVSS", "log10 Kd (nM) by replicate": "n.d. n.d. n.d. n.d. n.d. n.d.", "empty controls": "0 of 18"}
{"VH": "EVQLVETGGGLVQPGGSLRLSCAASGFTLNSYGISWVRQAPGKGPEWVSVIYSDVRRTFYGDAVKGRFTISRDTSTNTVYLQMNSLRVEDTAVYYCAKGRYAGTFDSWGQGTLVTVSS", "log10 Kd (nM) by replicate": "n.d. n.d. n.d. n.d. n.d. n.d.", "empty controls": "0 of 18"}
{"VH": "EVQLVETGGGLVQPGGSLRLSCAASGFTLNSYGISWVRQAPGKGPEWVSVIYSDGRRTFYGDSVKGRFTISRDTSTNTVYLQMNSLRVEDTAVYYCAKNRAAGTFDWWGQGTLVTVSS", "log10 Kd (nM) by replicate": "n.d. n.d. n.d. n.d. n.d. n.d.", "empty controls": "0 of 18"}

Extract of 2 entries:

{"VH": "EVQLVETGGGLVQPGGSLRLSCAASGFTLNSYGISWVRQAPGKGPEWVSVIYSDVRRTFYGDAVKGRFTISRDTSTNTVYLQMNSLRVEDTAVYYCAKGRYAGTFDSWGQGTLVTVSS", "log10 Kd (nM) by replicate": "n.d. n.d. n.d. n.d. n.d. n.d.", "empty controls": "0 of 18"}
{"VH": "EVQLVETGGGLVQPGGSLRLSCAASGFTLNSYGISWVRQAPGKGPEWVSVIYSDGRRTAAGDSVKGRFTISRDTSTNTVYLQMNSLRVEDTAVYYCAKGRAAGLFDSWGQGTLVTVSS", "log10 Kd (nM) by replicate": "n.d. n.d. n.d. n.d. n.d. n.d.", "empty controls": "0 of 18"}

The authors averaged sequences with at least three values out of six and counted those with two or fewer as poor binders.
Of ten entries with the parent sequence, four were seen in most replicates (averages 0.34 to 2.37), three in one and three in none, so single entries are noisy.
Nonspecific signal, from three strains lacking the peptide, appeared in 1% of pairings of all heavy chain designs, centred on 2.08 (5% of these signals below 0.84); values are not corrected for it. Also given: how often the same scFv was detected with the empty control strains, with their mean in brackets.
Values of this round are not directly comparable with the first-round values of the same sequences.